{"sequences": {"note": "Protein sequences, listed by entry. Tags and fused reporters are not part of them.", "UniProt Q03530, whole entry": "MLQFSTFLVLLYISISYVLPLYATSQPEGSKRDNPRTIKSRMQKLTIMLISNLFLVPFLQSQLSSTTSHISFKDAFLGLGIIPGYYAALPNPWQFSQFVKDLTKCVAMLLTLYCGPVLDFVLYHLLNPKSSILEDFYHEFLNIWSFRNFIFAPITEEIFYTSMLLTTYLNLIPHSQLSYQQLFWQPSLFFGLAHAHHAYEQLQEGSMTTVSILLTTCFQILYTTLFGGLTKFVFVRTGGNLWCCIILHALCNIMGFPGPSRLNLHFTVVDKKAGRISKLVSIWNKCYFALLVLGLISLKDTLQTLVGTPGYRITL"}, "source": "PubChem BioAssay AID2563", "about": "(Broad Institute, 2010)", "note": "Only a part is listed here, and it is no random draw. Some tests of the compounds listed are not included; inactive here does not mean inactive elsewhere. Activity calls are given as the source filed them.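 Rule for the calls: active = fall in fluorescence gain of 50% or more versus controls, with final raw signal at or below 3038400; inconclusive = same 50% fall but final raw signal above 3038400; inactive = fall in fluorescence gain under 50%.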"}
{"target": "CAAX prenyl protease 2 (Saccharomyces cerevisiae (strain ATCC 204508 / S288c)) (UniProt Q03530)", "assay": "yeast Rce1p protease inhibitors, primary screen, biochemical, fluorescence, cell-free homogeneous (AID 2563)", "conditions": "yeast membranes, quenched prenylated peptide cleavage fluorescence"}
{"smiles": "COc1ccc(C(=O)NCC2(N(C)C)CCCCC2)cc1", "outcome": "inactive"}
{"smiles": "O=C(NCC1(N2CCCCC2)CCCCC1)c1cccc(Br)c1", "outcome": "inactive"}
{"smiles": "CCN1CCCC(OC(=O)C2(O)c3ccccc3C=Cc3ccccc32)C1", "note": "(stereo not drawn)", "outcome": "inactive"}
{"smiles": "Cc1cc(C(=O)NCC2(N3CCCCC3)CCCCC2)ccc1[N+](=O)[O-]", "outcome": "inactive"}
{"smiles": "O=C(NCC1(N2CCCCC2)CCCCC1)c1cc(F)c(F)cc1Cl", "outcome": "inactive"}
{"smiles": "C=CCN1CCN(CCOC(=O)C(O)(c2ccccc2)c2ccccc2)CC1", "outcome": "inactive"}
{"smiles": "CN(C)c1ccc(C(=O)NCC2(N(C)C)CCCCC2)cc1", "outcome": "inactive"}
{"smiles": "CN(C)C1CCCC1OC(=O)C(O)(c1ccccc1)c1ccccc1", "note": "(stereo not drawn)", "outcome": "inactive"}
{"smiles": "Cc1ccccc1C(=O)NCC1(N2CCCCC2)CCCCC1", "outcome": "inactive"}
{"smiles": "COc1cc(SC)ccc1C(=O)NCC1(N(C)C)CCCCC1", "outcome": "inactive"}
{"smiles": "CCN(CC)CC(C)C(C)OC(=O)C(O)(c1ccccc1)c1ccccc1", "note": "(stereo not drawn)", "outcome": "inactive"}
{"smiles": "CC(C)N1C(=O)CC2(CCN(CCOC(=O)C(O)(c3ccccc3)c3ccccc3)CC2)C1=O", "outcome": "inactive"}
{"smiles": "CN1[C@@H]2CC[C@H]1CC(OC(=O)C(O)(c1ccccc1)c1ccccc1)C2", "note": "(stereo partly drawn)", "outcome": "inactive"}
{"smiles": "O=C(NCC1(N2CCCCC2)CCCCC1)c1cc([N+](=O)[O-])ccc1Cl", "outcome": "inactive"}
{"smiles": "CC(C)Oc1ccc(C(=O)NCC2(N(C)C)CCCCC2)cc1", "outcome": "inactive"}
{"smiles": "CN(C)c1cccc(C(=O)NCC2(N(C)C)CCCCC2)c1", "outcome": "inactive"}
{"smiles": "COc1ccc(Br)c(C(=O)NCC2(N3CCCCC3)CCCCC2)c1", "outcome": "inactive"}
{"smiles": "O=C(OC1CN2CCC1CC2)C(CO)(c1ccccc1)c1ccccc1", "note": "(stereo not drawn)", "outcome": "inactive"}
{"smiles": "O=C(NCC1(N2CCCCC2)CCCCC1)c1cccc(Cl)c1", "outcome": "inactive"}
{"smiles": "COc1ccc(Cl)cc1C(=O)NCC1(N(C)C)CCCCC1", "outcome": "inactive"}
{"smiles": "COc1cccc(C(=O)NCC2(N3CCCCC3)CCCCC2)c1", "outcome": "inactive"}
{"smiles": "COc1cc(C(=O)NCC2(N(C)C)CCCCC2)c([N+](=O)[O-])cc1OC", "outcome": "inactive"}
{"smiles": "CN(C)C1(CNC(=O)c2ccc(Br)cc2)CCCCC1", "outcome": "inactive"}
